Laboratory results as given in PubChem BioAssay (NCI).
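Cultured in 96-well plates, cells were exposed to test compound for 48 hours across five concentrations. GI50: concentration for 50% inhibition of growth. TGI marks complete inhibition of growth.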

Legend:
Assay in all cases: growth of human tumour cells (NCI), 48 h; in the data active = GI50 below about 0.43 µM; inactive = the rest
786-0 renal = test system: 786-0 renal
A498 renal = test system: A498 renal
A549 NSCLC = test system: A549 NSCLC
ACHN renal = test system: ACHN renal
BT-549 breast = test system: BT-549 breast
CAKI-1 renal = test system: CAKI-1 renal
CCRF-CEM leukemia = test system: CCRF-CEM leukemia
COLO 205 colon = test system: COLO 205 colon
DU-145 prostate = test system: DU-145 prostate
EKVX NSCLC = test system: EKVX NSCLC
HCC-2998 colon = test system: HCC-2998 colon
HCT-116 colon = test system: HCT-116 colon
HCT-15 colon = test system: HCT-15 colon
HL-60(TB) leukemia = test system: HL-60(TB) leukemia
HOP-62 NSCLC = test system: HOP-62 NSCLC
HS 578T breast = test system: HS 578T breast
HT29 colon = test system: HT29 colon
IGROV1 ovarian = test system: IGROV1 ovarian
K-562 leukemia = test system: K-562 leukemia
KM12 colon = test system: KM12 colon
LOX IMVI melanoma = test system: LOX IMVI melanoma
M14 melanoma = test system: M14 melanoma
MALME-3M melanoma = test system: MALME-3M melanoma
MCF7 breast = test system: MCF7 breast
MDA-MB-231 breast = test system: MDA-MB-231 breast
MDA-MB-435 = test system: MDA-MB-435
MDA-N = test system: MDA-N
MOLT-4 leukemia = test system: MOLT-4 leukemia
NCI-H226 lung = test system: NCI-H226 lung
NCI-H23 lung = test system: NCI-H23 lung
NCI-H322M lung = test system: NCI-H322M lung
NCI-H460 lung = test system: NCI-H460 lung
NCI-H522 lung = test system: NCI-H522 lung
NCI/ADR-RES ovarian = test system: NCI/ADR-RES ovarian
OVCAR-3 ovarian = test system: OVCAR-3 ovarian
OVCAR-4 ovarian = test system: OVCAR-4 ovarian
OVCAR-5 ovarian = test system: OVCAR-5 ovarian
OVCAR-8 ovarian = test system: OVCAR-8 ovarian
PC-3 prostate = test system: PC-3 prostate
RPMI-8226 leukemia = test system: RPMI-8226 leukemia
RXF 393 renal = test system: RXF 393 renal
SF-268 CNS = test system: SF-268 CNS
SF-295 CNS = test system: SF-295 CNS
SF-539 CNS = test system: SF-539 CNS
SK-MEL-2 melanoma = test system: SK-MEL-2 melanoma
SK-MEL-28 melanoma = test system: SK-MEL-28 melanoma
SK-MEL-5 melanoma = test system: SK-MEL-5 melanoma
SK-OV-3 ovarian = test system: SK-OV-3 ovarian
SN12C renal = test system: SN12C renal
SNB-19 CNS = test system: SNB-19 CNS
SNB-75 CNS = test system: SNB-75 CNS
SW-620 colon = test system: SW-620 colon
T-47D breast = test system: T-47D breast
TK-10 renal = test system: TK-10 renal
U251 CNS = test system: U251 CNS
UACC-257 melanoma = test system: UACC-257 melanoma
UACC-62 melanoma = test system: UACC-62 melanoma
UO-31 renal = test system: UO-31 renal

O=[N+]([O-])c1ccc(C[As](=O)(O)O)cc1
inactive: GI50 (786-0 renal) > 100 µM | GI50 (A498 renal) > 100 µM | GI50 (A549 NSCLC) > 100 µM | GI50 (ACHN renal) > 100 µM | GI50 (BT-549 breast) > 100 µM | GI50 (CAKI-1 renal) > 100 µM | GI50 (CCRF-CEM leukemia) 29.3 µM | GI50 (COLO 205 colon) > 100 µM | GI50 (DU-145 prostate) > 100 µM | GI50 (EKVX NSCLC) > 100 µM | GI50 (HCC-2998 colon) > 100 µM | GI50 (HCT-116 colon) > 100 µM | GI50 (HCT-15 colon) > 100 µM | GI50 (HL-60(TB) leukemia) > 100 µM | GI50 (HOP-62 NSCLC) > 100 µM | GI50 (HS 578T breast) > 100 µM | GI50 (HT29 colon) > 100 µM | GI50 (IGROV1 ovarian) > 100 µM | GI50 (K-562 leukemia) > 100 µM | GI50 (KM12 colon) > 100 µM | GI50 (LOX IMVI melanoma) > 100 µM | GI50 (M14 melanoma) > 100 µM | GI50 (MALME-3M melanoma) > 100 µM | GI50 (MCF7 breast) > 100 µM | GI50 (MDA-MB-231 breast) > 100 µM | GI50 (MDA-MB-435) > 100 µM | GI50 (MDA-N) > 100 µM | GI50 (MOLT-4 leukemia) > 100 µM | GI50 (NCI-H226 lung) > 100 µM | GI50 (NCI-H23 lung) > 100 µM | GI50 (NCI-H322M lung) > 100 µM | GI50 (NCI-H460 lung) > 100 µM | GI50 (NCI-H522 lung) 86.7 µM | GI50 (NCI/ADR-RES ovarian) > 100 µM | GI50 (OVCAR-3 ovarian) > 100 µM | GI50 (OVCAR-4 ovarian) > 100 µM | GI50 (OVCAR-5 ovarian) > 100 µM | GI50 (OVCAR-8 ovarian) > 100 µM | GI50 (PC-3 prostate) > 100 µM | GI50 (RPMI-8226 leukemia) > 100 µM | GI50 (RXF 393 renal) > 100 µM | GI50 (SF-268 CNS) > 100 µM | GI50 (SF-295 CNS) > 100 µM | GI50 (SF-539 CNS) 51.4 µM | GI50 (SK-MEL-2 melanoma) > 100 µM | GI50 (SK-MEL-28 melanoma) > 100 µM | GI50 (SK-MEL-5 melanoma) > 100 µM | GI50 (SK-OV-3 ovarian) > 100 µM | GI50 (SN12C renal) > 100 µM | GI50 (SNB-19 CNS) > 100 µM | GI50 (SNB-75 CNS) > 100 µM | GI50 (SW-620 colon) > 100 µM | GI50 (T-47D breast) > 100 µM | GI50 (TK-10 renal) > 100 µM | GI50 (U251 CNS) 66.2 µM | GI50 (UACC-257 melanoma) > 100 µM | GI50 (UACC-62 melanoma) > 100 µM | GI50 (UO-31 renal) > 100 µM
> 100 µM: TGI (786-0 renal) | TGI (A498 renal) | TGI (A549 NSCLC) | TGI (ACHN renal) | TGI (BT-549 breast) | TGI (CAKI-1 renal) | TGI (CCRF-CEM leukemia) | TGI (COLO 205 colon) | TGI (DU-145 prostate) | TGI (EKVX NSCLC) | TGI (HCC-2998 colon) | TGI (HCT-116 colon) | TGI (HCT-15 colon) | TGI (HL-60(TB) leukemia) | TGI (HOP-62 NSCLC) | TGI (HS 578T breast) | TGI (HT29 colon) | TGI (IGROV1 ovarian) | TGI (K-562 leukemia) | TGI (KM12 colon) | TGI (LOX IMVI melanoma) | TGI (M14 melanoma) | TGI (MALME-3M melanoma) | TGI (MCF7 breast) | TGI (MDA-MB-231 breast) | TGI (MDA-MB-435) | TGI (MDA-N) | TGI (MOLT-4 leukemia) | TGI (NCI-H226 lung) | TGI (NCI-H23 lung) | TGI (NCI-H322M lung) | TGI (NCI-H460 lung) | TGI (NCI-H522 lung) | TGI (NCI/ADR-RES ovarian) | TGI (OVCAR-3 ovarian) | TGI (OVCAR-4 ovarian) | TGI (OVCAR-5 ovarian) | TGI (OVCAR-8 ovarian) | TGI (PC-3 prostate) | TGI (RPMI-8226 leukemia) | TGI (RXF 393 renal) | TGI (SF-268 CNS) | TGI (SF-295 CNS) | TGI (SF-539 CNS) | TGI (SK-MEL-2 melanoma) | TGI (SK-MEL-28 melanoma) | TGI (SK-MEL-5 melanoma) | TGI (SK-OV-3 ovarian) | TGI (SN12C renal) | TGI (SNB-19 CNS) | TGI (SNB-75 CNS) | TGI (SW-620 colon) | TGI (T-47D breast) | TGI (TK-10 renal) | TGI (U251 CNS) | TGI (UACC-257 melanoma) | TGI (UACC-62 melanoma) | TGI (UO-31 renal)
